Biological target: 5-HT1AR (serotonin 1A receptor) (Homo sapiens, UniProt P08908)
Test: G protein nanoBRET
Format: cell-based

Amino acid sequences for entries named in this document (tags omitted).
UniProt P08908, whole entry: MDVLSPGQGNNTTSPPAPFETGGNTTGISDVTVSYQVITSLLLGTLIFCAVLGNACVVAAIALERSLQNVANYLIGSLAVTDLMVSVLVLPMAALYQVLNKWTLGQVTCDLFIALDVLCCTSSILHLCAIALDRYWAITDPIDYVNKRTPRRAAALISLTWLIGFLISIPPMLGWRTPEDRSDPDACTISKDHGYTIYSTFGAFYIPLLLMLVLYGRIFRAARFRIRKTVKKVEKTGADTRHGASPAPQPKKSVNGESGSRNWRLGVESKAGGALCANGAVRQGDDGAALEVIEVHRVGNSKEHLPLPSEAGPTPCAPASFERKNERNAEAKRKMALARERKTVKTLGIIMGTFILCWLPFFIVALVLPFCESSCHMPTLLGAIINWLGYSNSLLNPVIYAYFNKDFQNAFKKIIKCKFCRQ

- EC50: 6.76 µM
Structure (SMILES): CNS(=O)(=O)Cc1ccc2[nH]cc(CCN(C)C)c2c1 [Sumatriptan]
